{"sequences": {"note": "The chains behind the UniProt entries cited, without tags or fusion partners. Where a name states a change or a piece, a line headed by the entry shows the natural chain unless it says otherwise.", "UniProt P28335": "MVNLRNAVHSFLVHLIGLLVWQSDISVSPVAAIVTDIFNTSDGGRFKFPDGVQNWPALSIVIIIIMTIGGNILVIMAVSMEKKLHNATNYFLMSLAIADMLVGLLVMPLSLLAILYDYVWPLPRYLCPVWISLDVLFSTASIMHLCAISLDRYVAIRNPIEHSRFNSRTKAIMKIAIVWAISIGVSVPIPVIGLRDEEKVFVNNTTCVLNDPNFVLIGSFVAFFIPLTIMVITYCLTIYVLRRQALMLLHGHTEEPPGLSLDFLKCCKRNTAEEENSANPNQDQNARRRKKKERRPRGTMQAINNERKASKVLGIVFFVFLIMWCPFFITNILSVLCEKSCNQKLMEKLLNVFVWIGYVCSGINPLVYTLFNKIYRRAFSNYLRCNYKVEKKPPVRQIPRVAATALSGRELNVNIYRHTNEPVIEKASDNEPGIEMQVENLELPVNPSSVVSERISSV"}, "source": "ChEMBL document CHEMBL3286112", "about": "“Novel aza-analogous ergoline derived scaffolds as potent serotonin 5-HT₆ and dopamine D₂ receptor ligands” (J Med Chem, 2014)", "molecular_target": "5-hydroxytryptamine receptor 2C (Homo sapiens, UniProt P28335)", "assay": "Displacement of [3H]5-HT from human recombinant 5-HT2C receptor expressed in HEK293 cells", "type": "cell-based", "data": [{"smiles": "CN1C[C@@H](NS(=O)(=O)N(C)C)C[C@@H]2c3cccc4c3c(cn4C)C[C@H]21", "note": "[MESULERGINE]", "values": [{"measurement": "Ki", "value": 1.82, "unit": "nM"}]}]}
